From patent US3980522A, “Production of a new antibiotic, calvatic acid” (Zaidan Hojin Biseibutsu Kagaku Kenkyu Kai, priority 1973, dated 1976)
In brackets after ≈: the same amount, converted by molar mass. Like-named read-outs stand apart in the source and are kept apart here.

Legend:
[1] = test system: Proteus vulgaris OX 19; assay: Antimicrobial spectrum, agar dilution MIC; format: cell-based; details: OX19
[2] = test system: Shigella sonnei 191-66; assay: Antimicrobial spectrum, agar dilution MIC; format: cell-based; details: 19166, agar dilution method
[3] = test system: Saccharomyces cerevisiae; assay: Antimicrobial spectrum, agar dilution MIC; format: cell-based; details: agar dilution method
[4] = test system: Sarcina lutea PCI 1001; assay: Antimicrobial spectrum, agar dilution MIC; format: cell-based; details: Micrococcus luteus, PCI1001, agar dilution method
[5] = test system: Yoshida sarcoma; assay: Inhibition of growth of Yoshida sarcoma in cell culture; details: Rattus norvegicus, read-out: inhibition of growth of Yoshida sarcoma in cell culture
[6] = test system: Proteus rettgeri GN 311; assay: Antimicrobial spectrum, agar dilution MIC; format: cell-based; details: Providencia rettgeri, GN311, agar dilution method
[7] = test system: L-1210 mouse leukemia; assay: Survival of mice inoculated with L-1210 mouse leukemia; details: for survival time, % of the control: 1 × 10^5 cells inoculated i.p.
[8] = test system: Vibrio anguillarun NCBM 6; assay: Antimicrobial spectrum, agar dilution MIC; format: cell-based; details: NCBM6, agar dilution method
[9] = test system: red disease (Aeromonas sp.) of loaches; assay: Preventive and curative effect against red disease of loaches; format: in vivo
[10] = test system: Bacillus cereus ATCC 10702; assay: Antimicrobial spectrum, agar dilution MIC; format: cell-based; details: ATCC10702, agar dilution method
[11] = test system: Staphylococcus aureus Smith; assay: Antimicrobial spectrum, agar dilution MIC; format: cell-based
[12] = test system: Vibrio anguillarum; assay: Growth inhibition of fish pathogen; format: cell-based
[13] = test system: Candida albicans 3147; assay: Antimicrobial spectrum, agar dilution MIC; format: cell-based; details: agar dilution method
[14] = test system: Aeromonas salmonicida (red disease); assay: Growth inhibition of fish pathogen; format: cell-based
[15] = test system: Cryptococcus neoformans NI 7496; assay: Antimicrobial spectrum, agar dilution MIC; format: cell-based; details: NI7496, agar dilution method
[16] = test system: Gram-positive bacteria; assay: Antimicrobial activity, agar dilution, summary; format: cell-based
[17] = test system: Escherichia coli NIHJ; assay: Antimicrobial spectrum, agar dilution MIC; format: cell-based; details: agar dilution method
[18] = test system: fungi; assay: Antimicrobial activity, agar dilution, summary; format: cell-based; details: agar dilution method
[19] = test system: Mycobacterium phlei; assay: Antimicrobial spectrum, agar dilution MIC; format: cell-based; details: Mycolicibacterium phlei, agar dilution method
[20] = test system: Helminthosporium oryzae; assay: Antimicrobial spectrum, agar dilution MIC; format: cell-based; details: Bipolaris oryzae
[21] = test system: Aeromonas salmonicida ATCC 14174; assay: Antimicrobial spectrum, agar dilution MIC; format: cell-based; details: ATCC14174, agar dilution method
[22] = test system: Staphylococcus aureus Terajima; assay: Antimicrobial spectrum, agar dilution MIC; format: cell-based; details: agar dilution method
[23] = test system: Mycobacterium smegmatic ATCC 607; assay: Antimicrobial spectrum, agar dilution MIC; format: cell-based; details: ATCC607, agar dilution method
[24] = test system: Corynebacterium bovis 1810; assay: Antimicrobial spectrum, agar dilution MIC; format: cell-based
[25] = physchem; details: water
[26] = test system: Trichlphyton asteroides; assay: Antimicrobial spectrum, agar dilution MIC; format: cell-based; details: agar dilution method
[27] = test system: Candida Yu-1200; assay: Antimicrobial spectrum, agar dilution MIC; format: cell-based; details: YU1200, agar dilution method
[28] = test system: Pseudomonas aeruginosa A3; assay: Antimicrobial spectrum, agar dilution MIC; format: cell-based; details: agar dilution method
[29] = test system: Pseudomonas fluorescens; assay: Antimicrobial spectrum, agar dilution MIC; format: cell-based; details: agar dilution method
[30] = test system: Pyricularia oryzae; assay: microbe, parasite or virus in culture; format: cell-based
[31] = test system: Bacillus subtilis NRRL B-558; assay: Antimicrobial spectrum, agar dilution MIC; format: cell-based; details: NRRLB558, agar dilution method
[32] = test system: Gram-negative bacteria; assay: Antimicrobial activity, agar dilution, summary; format: cell-based
[33] = test system: Candida krusei NI 7492; assay: Antimicrobial spectrum, agar dilution MIC; format: cell-based; details: Pichia kudriavzevii, NI7492, agar dilution method
[34] = test system: Klebsiella pneumoniae PCI 602; assay: Antimicrobial spectrum, agar dilution MIC; format: cell-based; details: PCI602, agar dilution method
[35] = test system: Pellicularia filamentosa; assay: Antimicrobial spectrum, agar dilution MIC; format: cell-based; details: agar dilution method
[36] = test system: Salmonella typhi T-63; assay: Antimicrobial spectrum, agar dilution MIC; format: cell-based; details: Salmonella enterica
[37] = Solubility in solvents; format: physicochemical
[38] = test system: Candida pseudotropicalis NI 7494; assay: Antimicrobial spectrum, agar dilution MIC; format: cell-based; details: Kluyveromyces marxianus, NI7494, agar dilution method
[39] = test system: Escherichia coli K-12; assay: Antimicrobial spectrum, agar dilution MIC; format: cell-based; details: K12
[40] = test system: Micrococcus flavus FDA 16; assay: Antimicrobial spectrum, agar dilution MIC; format: cell-based; details: FDA16
[41] = test system: Escherichia coli ML 1629; assay: Antimicrobial spectrum, agar dilution MIC; format: cell-based; details: ML1629, agar dilution method
[42] = test system: Pseudomonas No. 12; assay: Antimicrobial spectrum, agar dilution MIC
[43] = test system: test microorganisms; assay: Antimicrobial activity of methyl ester, agar dilution, summary; format: cell-based; details: agar dilution method
[44] = test system: Pseudomonas A3; assay: Antimicrobial spectrum, agar dilution MIC

N#CN=[N+]([O-])c1ccc(C(=O)O)cc1 [calvatic acid, p-carboxyphenylazoxycarbonitrile]
MIC ([1]; Proteus vulgaris): 6.25 µg/mL (≈ 32.7 µM)
MIC [2]: 6.25 µg/mL (≈ 32.7 µM)
MIC [3]: > 100 µg/mL
MIC [4]: 3.12 µg/mL (≈ 16.3 µM)
inhibition at 1.56 µg/mL [5]: ~50%
MIC [6]: 100 µg/mL (≈ 523 µM)
survival time, % of the control ([7]; 100 mcg./mouse × 10, intraperitoneal): 138%
survival time, % of the control ([7]; 200 mcg./mouse × 10, intraperitoneal): 147%
survival time, % of the control ([7]; 400 mcg./mouse × 10, intraperitoneal): 153%
inhibition of growth of L-1210 mouse leukemia ([7]; mouse, in vivo): inhibited the growth
MIC [8]: < 0.78 µg/mL
effect on infection of the fish by red disease ([9]; 5 mg./L): prevented but not cured
effect on red disease ([9]; 10 mg./L): apparently cured
Percent of death ([9]; Expt. 1, 5 mg./L in water, 12 loaches, 3 breeding days (control 0 mg./L: 100)): 33%
survivors ([9]; Expt. 1, 5 mg./L, 3 breeding days): 67%
time to death of all survivors after transfer to water containing no calvatic acid ([9]; Expt. 1, after 5 mg./L): ≤ 4 days
Percent of death ([9]; Expt. 2, 10 mg./L in water, 20 loaches, 10 breeding days (control 0 mg./L, 7 days: 100)): 15%
survivors ([9]; Expt. 2, 10 mg./L, 10 breeding days): 85%
survival of all survivors after transfer to water containing no calvatic acid ([9]; Expt. 2, after 10 mg./L): more than 30 days
MIC [10]: 3.12 µg/mL (≈ 16.3 µM)
MIC ([11]; Staphylococcus aureus): 6.25 µg/mL (≈ 32.7 µM)
inhibits the growth of Vibrio anguillarum [12]: inhibits especially the growth
MIC [13]: > 100 µg/mL
inhibits the growth of Aeromonas salmonicida (red disease) [14]: inhibits especially the growth
MIC [15]: > 100 µg/mL
antimicrobial activity against the Gram-positive bacteria ([16]; agar dilution method): strong
MIC [17]: 6.25 µg/mL (≈ 32.7 µM)
antimicrobial activity against the fungi [18]: weak
MIC [19]: > 100 µg/mL
MIC [20]: > 100 µg/mL
MIC [21]: < 0.78 µg/mL
MIC [22]: 1.56 µg/mL (≈ 8.16 µM)
MIC [23]: > 100 µg/mL
MIC ([24]; Corynebacterium bovis, 1810): 3.12 µg/mL (≈ 16.3 µM)
pKa [25]: 3.2
MIC [26]: > 100 µg/mL
MIC [27]: > 100 µg/mL
MIC [28]: > 100 µg/mL
MIC [29]: > 100 µg/mL
MIC [30]: > 100 µg/mL
MIC [31]: 12.5 µg/mL (≈ 65.4 µM)
antimicrobial activity against the Gram-negative bacteria ([32]; agar dilution method): weak
MIC [33]: 100 µg/mL (≈ 523 µM)
MIC [34]: 12.5 µg/mL (≈ 65.4 µM)
MIC [35]: 100 µg/mL (≈ 523 µM)
MIC [36]: 12.5 µg/mL (≈ 65.4 µM)
solubility ([37]; hexane): insoluble
solubility ([37]; methanol, ethanol, butanol, ethyl acetate, butyl acetate, dimethyl sulfoxide and alkaline water): soluble
solubility ([37]; methanol, ethanol, propanol, butanol, dimethyl sulfoxide, acetone (b7), alkaline water): soluble
MIC [38]: > 100 µg/mL
MIC ([39]; Escherichia coli K-12, agar dilution method, read-out: MIC): 25 µg/mL (≈ 131 µM)
MIC ([40]; Micrococcus flavus): 3.12 µg/mL (≈ 16.3 µM)

COC(=O)c1ccc([N+]([O-])=NC#N)cc1 [calvatic acid methyl ester]
MIC ([1]; Proteus vulgaris OX 19, agar dilution method, read-out: MIC): 3.12 µg/mL (≈ 15.2 µM)
MIC [4]: 6.25 µg/mL (≈ 30.5 µM)
MIC ([11]; Staphylococcus aureus Smith, agar dilution method, read-out: MIC): 6.25 µg/mL (≈ 30.5 µM)
MIC [41]: 12.5 µg/mL (≈ 60.9 µM)
antimicrobial activity against the Gram-positive bacteria compared with calvatic acid ([16]; methyl ester vs calvatic acid): almost the same as that of calvatic acid
MIC [17]: 6.25 µg/mL (≈ 30.5 µM)
MIC [23]: 3.12 µg/mL (≈ 15.2 µM)
MIC [42]: > 50 µg/mL
MIC ([24]; Corynebacterium bovis 1810, agar dilution method, read-out: MIC): 3.12 µg/mL (≈ 15.2 µM)
antimicrobial activity against the Gram-negative bacteria compared with calvatic acid ([32]; methyl ester vs calvatic acid): clearly stronger than that of calvatic acid
antimicrobial activity [43]: strong antimicrobial activity
MIC [34]: 6.25 µg/mL (≈ 30.5 µM)
MIC [36]: 6.25 µg/mL (≈ 30.5 µM)
MIC [44]: 50 µg/mL (≈ 244 µM)
MIC ([39]; Escherichia coli): 6.25 µg/mL (≈ 30.5 µM)
MIC ([40]; Micrococcus flavus FDA 16, agar dilution method, read-out: MIC): 3.12 µg/mL (≈ 15.2 µM)
